Test results: US20230414628A1, “METHODS FOR TREATING DISEASES MEDIATED BY GLUTATHIONE PEROXIDASE 4” (priority 2022, published 2023)

System: RAG01 (derived from fibroblasts of a patient diagnosed with SSMD) fibroblasts
Assay: CellTiter-Glo concentration response in RAG01 fibroblasts
Type: cell-based
Settings: Homo sapiens, Fibroblast, 72 h
Experimental: Compounds described herein were tested in three cell lines, RAG01 (derived from fibroblasts of a patient diagnosed with SSMD) fibroblasts, RAG02 (derived from fibroblasts of the patient's parent), and GM09503 (from supplier Corriell) (derived from a healthy donor) to each generate 10-point concentration response curves (CRC). The three cell lines were each thawed seven (7) days prior to seeding. The RAG01 cells were thawed in a medium supplemented with a-tocopherol. Cells were passaged four (4) days prior to the seeding. The α-tocopherol was removed from the RAG01 cells. Cells were then seeded at 900 cells per well in 384-well plates. Two replicates were prepared for two independent (replicate) experiments. All plates were then incubated with compounds described herein for 72 hours, prior to CellTiter-Glo assay. […] The assay was run using the CellTiter-Glo (Promega) following manufacturer's guidelines and luminescent spectrophotometric reading on PHERAstar FSX (BMG Labtech). A 0.1% dimethylsulfoxide (DMSO) was used as a blank (vehicle control); and a 1 μM Ferrostatin-1 was used as a control (CTRL).
The raw data was analyzed using Activity Base® software. The compounds were evaluated by efficacy (percentage effect) normalized to the vehicle control. The percentage effect (PE) was determined from the signal increase in comparison to the vehicle control according to the formula below: […]

SMILES | EC50 [µM]
Cc1c(NC(=O)N2CCOCC2)ccc2c1c1ccccc1n2C(C)C [compound 63, NPY-5RA972] | 5.45
Cc1ccc(CCCO)c(NCc2ccc3nc(NCCCN4CCOCC4)n(Cc4nc(C)ccc4O)c3c2)c1 [compound 102, TMC353121] | 1.41
